For 1 molecule, inhibition in vivo results are on record in ChEMBL document CHEMBL1629461, “The novel benzopyran class of selective cyclooxygenase-2 inhibitors. Part 2: the second clinical candidate having a shorter and favorable human half-life” (Bioorg Med Chem Lett, 2010).

For the assay, the species on record is Rattus norvegicus. Put plainly: animal or person. The settings on record: read-out: INH.

On to `CC(C)Cc1cc2c(cc1Cl)C=C(C(=O)O)C(C(F)(F)F)O2` (stereo unspecified), for which the inhibition in vivo at 10 mg/kg is 62%.
